# Paper PMC13254535, “The RecBCD complex interacts directly with the DNA sliding clamp in Escherichia coli” (Nucleic Acids Research, 2026)
# T1: RecB nuclease motif peptide (KQVEMEFY) (Escherichia coli)
# T1 construct: also called QVEMEF peptide; RecB-derived QVEMEF peptide; source: synthetic peptide; bought: TAG Copenhagen
# T1 peptide: Ac-KQVEMEFY-NH2
# B1: Escherichia coli β-clamp (DnaN), recombinantly expressed and purified (natural protein)
# chain: MKFTVEREHLLKPLQQVSGPLGGRPTLPILGNLLLQVADGTLSLTGTDLEMEMVARVALVQPHEPGATTVPARKFFDICRGLPEGAEIAVQLEGERMLVRSGRSRFSLSTLPAADFPNLDDWQSEVEFTLPQATMKRLIEATQFSMAHQDVRYYLNGMLFETEGEELRTVATDGHRLAVCSMPIGQSLPSHSVIVPRKGVIELMRMLDGGDNPLRVQIGSNNIRAHVGDFIFTSKLVDGRFPDYRRVLPKNPDKHLEAGCDLLKQAFARAAILSNEKFRGVRLYVSENQLKITANNPEQEEAEEILDVTYSGAEMEIGFNVSYVLDVLNALKCENVRMMLTDSVSSVQIEDAASQSAAYVVMPMRL
# notes: β-clamp (dnaN), E. coli; homodimer; Unlabeled in STD-NMR and ITC; 2H,13C,15N-labeled in the TROSY-HSQC experiments; also called DNA sliding clamp; source: recombinantly expressed and purified as previously described [54]
# Molecular target: T1, RecB nuclease motif peptide (KQVEMEFY)
# Experiment: ITC; 278-294 µM β-clamp in the syringe titrated into 70.6 µM peptide in the cell; 20 mM sodium phosphate, 100 mM NaCl, 1 mM TCEP, 0.02% DMSO, pH 7.4, 25°C; one-site model; three replicates
# Settings: both partners purified
binder,measurement,value
B1,stoichiometry N,0.39
